Results from patent publication US20130046015A1, “Therapeutic Inhibition of Granulocyte Function in Demyelinating Disease” (priority 2010, published 2013).

Key:
TH17 EAE = assay: TH17 EAE, treatment of induced disease; type: in vivo; conditions: IFN-β treatment
Method: Statistical analysis. EAE data are presented as means±SEM and statistical significance was determined using a two tailed Mann-Whitney test with a value of P<0.05 was considered significant. STAT1 activation and ELISA data are presented as means±1 standard deviation and statistics significance was determined using a two tailed student T-test.

[1] = test system: relapsing remitting multiple sclerosis; assay: Clinical response of RRMS patients to IFNβ therapy; type: in vivo, human; conditions: median
Method: MS Patients Clinical Classification and Serum Collection. Twenty-six closely monitored RRMS patients receiving IFNβ treatment for at least 12 months were identified from the outpatient clinic as responders or non-responders to IFNβ therapy at the MS Center Amsterdam, the Netherlands. The patients were classified based on EDSS (Extended Disability Status Scale) progression and the number of relapses and steroid interventions (3 days of 1000 mg/day i.v. methylprednisolone) in the two years before initiation of treatment as compared to the first two years after starting treatment (see Table 1). Two MS neurologists, blinded to the laboratory data, independently classified the selected patients as responder or non-responder. In case of disagreement there was a consensus meeting afterwards. Serum samples were obtained at a fixed time of the day just before starting IFNβ therapy. The study design received approval from the institutional Medical Ethics Board of the VU University Medical Center, Amsterdam, the Netherlands. All patients signed written informed consent.

[2] = test system: neuromyelitis optica (NMO); conditions: in vivo; cited from earlier work

**Q.** For “IFN-β: interferon β (Avonex, Betaseron, Rebif), conventional treatment for MS”, which “symptoms in TH17 induced EAE” value (TH17 EAE) is on record?
**A.** worsened

**Q.** What about the “Relapse rate in 2 yrs after start IFNβ” value ([1]; Non-responder (14 patients)) of the same substance?
**A.** 2

**Q.** What about the “Relapse rate in 2 yrs after start IFNβ” value ([1]; Responder (12 patients)) of the same substance?
**A.** 0

**Q.** What about the “relapses in individuals with NMO” value [2] of the same substance?
**A.** induces severe relapses
